Data on two compounds can be found in US20240300941A1, “HPK1 INHIBITORS, PREPARATION METHOD AND APPLICATION THEREOF” (ZHUHAI YUFAN BIOTECHNOLOGIES CO., LTD., priority 2018, published 2024).

Amino acid sequences for entries named in this document (tags omitted).
UniProt Q92918, whole entry: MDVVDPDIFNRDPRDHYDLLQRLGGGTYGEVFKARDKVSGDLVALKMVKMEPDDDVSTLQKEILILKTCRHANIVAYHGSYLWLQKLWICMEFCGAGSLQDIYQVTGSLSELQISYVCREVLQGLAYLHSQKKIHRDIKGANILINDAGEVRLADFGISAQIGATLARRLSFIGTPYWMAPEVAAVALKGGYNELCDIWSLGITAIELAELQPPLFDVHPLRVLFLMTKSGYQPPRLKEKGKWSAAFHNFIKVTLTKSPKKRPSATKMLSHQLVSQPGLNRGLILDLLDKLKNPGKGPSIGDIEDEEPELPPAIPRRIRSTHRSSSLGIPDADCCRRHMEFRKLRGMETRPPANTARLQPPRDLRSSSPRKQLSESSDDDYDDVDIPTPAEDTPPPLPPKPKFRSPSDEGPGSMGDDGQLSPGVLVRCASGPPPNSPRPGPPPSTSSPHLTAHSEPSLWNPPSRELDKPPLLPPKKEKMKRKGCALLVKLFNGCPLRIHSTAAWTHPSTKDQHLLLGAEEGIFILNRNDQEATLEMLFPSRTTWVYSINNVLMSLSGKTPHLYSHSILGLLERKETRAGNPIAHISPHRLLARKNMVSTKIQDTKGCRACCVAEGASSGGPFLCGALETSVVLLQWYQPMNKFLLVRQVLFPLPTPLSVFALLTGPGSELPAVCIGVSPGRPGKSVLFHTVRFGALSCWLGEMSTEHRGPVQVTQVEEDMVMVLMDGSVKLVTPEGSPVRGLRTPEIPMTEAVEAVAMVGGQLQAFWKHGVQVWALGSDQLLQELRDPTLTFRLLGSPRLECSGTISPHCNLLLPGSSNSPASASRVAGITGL

The target of one experiment is HPK1 (Homo sapiens (Human), UniProt Q92918). The experiment can be described thus: HPK1 ADP-Glo enzyme assay. The conditions noted are these: HPK1 protein 5 nM, MBP and ATP substrate, ADP-Glo readout. In general terms: ADP-Glo first removes unused ATP, then detects ADP through luciferase.
The subject of experiment [1] is pSLP-76(Ser376) in Jurkat E6-1 cells. The experiment can be described thus: Jurkat E6-1 pSLP-76(Ser376) HTRF experiment. The conditions noted are these: 4 hours compound incubation, anti-human CD3 antibody 20 minutes, Phospho-SLP-76 / SLP-76 HTRF. The procedure:
Jurkat E6-1 cells were purchased from ATCC (Cat. No. TIB-152TM) and cultured overnight with RPMI 1640 containing 0.5% o FBS, after that 20 μL (10^7 cells/mL) cells were added to the experimental plates. Then the test compounds were diluted by three-fold gradient, and 10 different concentrations were prepared, and 5 μl of each was added to the experimental plate, and incubated for 4 hours in 37° C. incubator containing 5% CO2. Then 5 ul of 6× anti-human CD3 antibody (Biolegend, Cat. No. 300432) was added and incubated for 20 minutes in 37° C. incubator containing 5% CO2. Finally, the Phospho-SLP-76 and SLP-76 results were determined using the Cisbio Phospho-SLP-76 and SLP-76 HTRF assay kits (items: 63ADK076PEH and 63ADK077PEH, respectively). Based on the results, the IC50 of the compound is calculated.
(In TR-FRET formats the signal depends on donor and acceptor labels being close together.)

Usually IC50 stands for the midpoint of a concentration-inhibition curve. On to `CC1CC(O)(C#Cc2cccc(COc3cc(-c4cnc(C5CCN(C)CC5)s4)cnc3N)c2)C1` (centres unmarked), for which the IC50 against HPK1 is < 0.1 µM.
For the compound `CN1CCC(c2ncc(-c3cnc(N)c(OCc4cccc(C#CC5(O)CC5)c4)c3)s2)CC1`, the IC50 in experiment [1] was < 1 µM.
